AlphaSeq binding of Ab-14 light chain variants to a spike HR2 peptide

Antigen: PDVDLGDISGINAS, a 14-residue peptide of the SARS-CoV-2 spike HR2 region.

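AAYL50 was designed without a model: most single CDR substitutions and a random sample of double and triple ones. Affinity was read by AlphaSeq, a pooled yeast mating assay with surface-displayed partners. Binding brings cells together so that they mate, and sequencing counts the barcode pairs among the diploids. A regression on co-assayed BCL2-family reference pairs converts the normalised counts of each replicate to an apparent Kd. Each pool was mated in three replicate cultures.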

Each scFv is VH, three GGGGS repeats, VL, as in the parent Ab-14, and differs from it in the CDRs of the light chain only.
VH: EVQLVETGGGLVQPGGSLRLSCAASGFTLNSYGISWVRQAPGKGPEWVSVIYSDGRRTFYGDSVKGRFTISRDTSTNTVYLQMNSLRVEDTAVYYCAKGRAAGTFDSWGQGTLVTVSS
VL: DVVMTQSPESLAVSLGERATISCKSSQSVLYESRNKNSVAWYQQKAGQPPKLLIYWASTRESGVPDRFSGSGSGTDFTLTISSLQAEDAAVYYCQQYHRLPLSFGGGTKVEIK

Positions count from residue 1 of the parent VL; K24F puts F in place of K.
Numbers give log10(Kd / nM), so 0 is 1 nM and 3 is 1 µM. Smaller is tighter.
Where no diploid with the target was found in that replicate, the entry reads "ND": below detection, most likely a poor binder, though not proof of it.
Three control strains display no target. For library AAYL50, 18% of the pairings with them gave a signal, with a median of 4.19 and one signal in twenty below 2.99, so weak values seen in few replicates may be background. The control count says in how many pairings with the empty strains this scFv gave a signal, with their mean in brackets.

| # | changes | replicates, log10 nM | empty controls |
|---|---|---|---|
| 1 | K24F+S26Q+Y31T | ND ND ND | 0/9 |
| 2 | S26L+R60N+Q96L | ND ND ND | 0/9 |
| 3 | R34Y+E61F+Q95H | ND ND ND | 0/9 |
| 4 | N35W+S38Q+L102I | ND ND ND | 0/9 |
| 5 | K24R+L30I+N35R | 3.02 3.31 2.82 | 1/9 (4.65) |
| 6 | K24N+R60Y+R99L | ND ND ND | 0/9 |
| 7 | E61T+Y97G+L102Q | ND ND ND | 0/9 |
| 8 | Q96V+Y97R+R99V | 1.33 1.62 1.73 | 1/9 (4.37) |
| 9 | L30G+V39G+H98E | ND ND ND | 0/9 |
| 10 | S28M+R34L+N35L | 1.62 1.86 2.00 | 0/9 |
| 11 | R34I+S58G+L100Q | 0.91 1.42 1.79 | 2/9 (4.77) |
| 12 | N37P+Q95A+L102E | ND ND ND | 0/9 |
| 13 | S33L+R60L+S103E | 2.78 2.64 2.55 | 3/9 (3.44) |
| 14 | K24C+L30H+S103M | ND ND ND | 0/9 |
| 15 | V39Q+Q96E | ND ND 5.96 | 3/9 (4.25) |
| 16 | S25P+L100M+S103H | 2.37 2.86 2.49 | 2/9 (5.33) |
| 17 | Q27V+Y31V+N37V | 2.81 3.50 2.49 | 0/9 |
| 18 | S33T+R60S | 4.75 3.97 4.64 | 3/9 (4.77) |
| 19 | Y31P+S38V+R99Q | ND 3.92 ND | 4/9 (3.66) |
| 20 | A40E+R99Q+P101D | ND ND 3.60 | 0/9 |
| 21 | R34T+S62L+L100A | 0.43 0.66 0.59 | 1/9 (3.79) |
| 22 | N37Y+R99Y+P101L | ND ND ND | 1/9 (3.63) |
| 23 | S26L+A40R+R60W | ND ND 3.83 | 0/9 |
| 24 | E32Y+S38R+Y97L | ND ND ND | 0/9 |
| 25 | K24P+S38M+L100I | ND ND ND | 0/9 |
| 26 | N35I+V39T+L102I | 3.91 4.29 ND | 2/9 (3.47) |
| 27 | Y31K+A40P+W56T | ND ND ND | 1/9 (4.39) |
| 28 | W56F+Q96V+L102V | 1.31 1.45 1.39 | 1/9 (4.51) |
| 29 | Q27M+L30D+S58F | 1.22 1.58 1.56 | 0/9 |
| 30 | S25L+V39L+W56H | -0.41 -0.03 -0.28 | 2/9 (5.17) |
| 31 | S28K+V39H+S58K | ND ND ND | 2/9 (3.61) |
| 32 | S25Q+Y31K+W56E | ND ND ND | 0/9 |

For reference, 2 entries of the list once more:

{"changes": "V39Q+Q96E", "replicates, log10 nM": "ND ND 5.96", "empty controls": "3/9 (4.25)"}
{"changes": "N37P+Q95A+L102E", "replicates, log10 nM": "ND ND ND", "empty controls": "0/9"}

Values reported by Engelhart et al. 2022, doi:10.1038/s41597-022-01779-4 (FLAb copy).